Drawing on patent publication US20040110775A1, “Cyclin dependent kinase inhibiting purine derivatives” (priority 2001, published 2004), this text covers IC50 for ten compounds.

Structures are written as SMILES.

The assay has as its target CDK2 (Homo sapiens, UniProt P24941). Nature of the assay: Inhibition of CDK2 (CDK inhibition assay). Conditions: IC50 ± SD CDK2.

`Clc1cccc(Nc2nc(OCC3CCCCC3)c3[nH]cnc3n2)c1` [NU6086, 2-(3′-Chloroanilino)-6-cyclohexylmethoxypurine] registered an IC50 of 2400 ± 300 nM. Compound `Brc1cccc(Nc2nc(OCC3CCCCC3)c3[nH]cnc3n2)c1` [NU6095, 2-(3′-Bromoanilino)-6-cyclohexylmethoxypurine] gave an IC50 of 6800 ± 4800 nM. In the case of `COc1cccc(Nc2nc(OCC3CCCCC3)c3[nH]cnc3n2)c1` [NU6096, 6-Cyclohexylmethoxy-2-(3′-methoxyanilino)purine], the IC50 was 1800 ± 200 nM. For the compound `COc1ccc(Nc2nc(OCC3CCCCC3)c3[nH]cnc3n2)cc1` [NU6100, 6-Cyclohexylmethoxy-2-(4′-methoxyanilino)purine], the IC50 worked out at 700 ± 30 nM. This IC50 is about 2.6-fold lower than that of the compound before. `CSc1cccc(Nc2nc(OCC3CCCCC3)c3nc[nH]c3n2)c1` [NU6101, 6-Cyclohexylmethoxy-2-(3′-methylmercaptoanilino)purine] yielded an IC50 of 1700 ± 100 nM. Regarding `CNS(=O)(=O)c1ccc(Nc2nc(OCC3CCCCC3)c3nc[nH]c3n2)cc1` [NU6127, 4-(6-Cyclohexylmethoxy-2-ylamino)-N-methylbenzenesulfonamide], the IC50 came to 7 ± 0.1 nM. Under `CN(C)S(=O)(=O)c1ccc(Nc2nc(OCC3CCCCC3)c3nc[nH]c3n2)cc1` [NU6128, 4-(6-Cyclohexylmethoxy-2-ylamino)-N,N-dimethylbenzenesulfonamide] stands 56 ± 20 nM; under `NC(=O)c1ccc(Nc2nc(OCC3CCCCC3)c3nc[nH]c3n2)cc1` [NU6141, 4-(6-Cyclohexylmethoxy-9H-purin-2-ylamino)benzamide], around 100 nM; under `OCc1cccc(Nc2nc(OCC3CCCCC3)c3[nH]cnc3n2)c1` [NU6151, [3-(6-Cyclohexylmethoxy-9H-purin-2-ylamino)phenyl]methanol], 400 ± 100 nM.

Turning to `COc1cc(Nc2nc(OCC3CCCCC3)c3[nH]cnc3n2)ccc1S(N)(=O)=O` [NU6161, 4-[6-Cyclohexylmethoxy-9H-purin-2-ylamino]-benzene(3′-methoxy)sulfonamide], half-maximal inhibition (IC50) required 70 ± 8 nM.

As a reminder, the IC50 is the point on the concentration scale where inhibition reaches its midpoint. A low value points to greater potency in that assay.
